Legend:
[1] = Cytotoxicity against MDA MB361 cell line MDA MB 361 expressing beta-galactosidase done for 1 h with compound dissolved in DMSO
[2] = Chemical half life period as substrates of CPG2 was determined; assay type: ADME
In short: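 Compounds diluted from 10 mM DMSO stocks to 100 μM final in CPG2 assay buffer (100 mM Tris-HCl pH 7.3, 260 μM ZnCl2), no enzyme. Remaining parent measured over time by repeat isocratic reverse-phase HPLC injections (10 mM ammonium acetate pH 5.0/methanol), UV at λmax. Half-life from one-phase exponential decay fit (max 1, min 0).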

[3] = Ratio of IC50 of LacZ cell line to stCPG2(Q)3-expressing cell line; assay type: functional, Homo sapiens
In short: (§1)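 Selectivity ratio: IC50 in β-gal (LacZ) control MDA MB 361 cells divided by IC50 in CPG2- or stCPG2(Q)3-expressing cells, both from 1 h + 20 h exposure, 5-day regrowth SRB assay.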

[4] = Cytotoxicity aganist MDA MB361 cell line MDA MB 361 expressing stCPG2(Q)3 done for 1 hr with compound dissolved in DMSO
[5] = Cytotoxicity aganist MDA MB361 cell line MDA MB 361 expressing carboxypeptidase G2 done for 1 hr with compound dissolved in DMSO
[6] = Ratio of IC50 of LacZ cell line to CPG2-expressing cell line; assay type: functional, Homo sapiens; in short: as §1

| SMILES | IC50 [1] | T1/2 [2] | Differential [3] | IC50 [4] | IC50 [5] | Differential [6] |
| --- | --- | --- | --- | --- | --- | --- |
| O=C(O)c1cc(F)c(N(CCBr)CCBr)c(F)c1F | 44.9 µM | 8.9 min | 1.5 | 30 µM | 35.1 µM | 1 |
| O=C(O)c1cc(F)c(N(CCI)CCI)c(F)c1 | 6 µM | 4.2 min | 0.5 | 12.7 µM | 11.9 µM | 1 |
| O=C(O)c1c(F)c(F)c(N(CCCl)CCCl)c(F)c1F |  | 1360 min | 1 |  |  | 1 |
| O=C(O)c1cc(F)c(N(CCCl)CCCl)c(F)c1F | 47.6 µM | 360 min | 1 | 57.8 µM | 57.9 µM | 1 |
| O=C(O)c1cc(F)c(N(CCCl)CCCl)c(F)c1 | 23.8 µM | 91 min | 1 | 25.9 µM | 22 µM | 1 |
| O=C(O)c1c(F)c(F)c(N(CCI)CCI)c(F)c1F | 57.7 µM | 35 min | 1 | 60.5 µM | 66.7 µM | 1 |
| O=C(O)c1cc(F)c(N(CCBr)CCBr)c(F)c1 | 23.4 µM | 2.5 min | 1 | 21.1 µM | 20.6 µM | 1 |
| O=C(O)c1cc(F)c(N(CCI)CCI)c(F)c1F | 29.6 µM | 13.4 min | 1 | 24.7 µM | 34.4 µM | 1 |

Reference: ChEMBL document CHEMBL1141149, “Novel fluorinated prodrugs for activation by carboxypeptidase G2 showing good in vivo antitumor activity in gene-directed enzyme prodrug therapy” (J Med Chem, 2005)
